These results are taken from US10231967B2, “Compounds and their use as BACE inhibitors” (ASTRAZENECA AB, priority 2010, dated 2019).

The assay has as its system sAPPβ release in SH-SY5Y cells. The assay can be described thus: sAPPβ release assay. The conditions noted are these: Homo sapiens, 17 h, compounds incubated 17 h, MSD detection. It is filed as cell-based. The protocol: Thaw cells and seed at a conc. of around 10000 cells/well in DMEM/F-12 with Glutamax, 10% FCS and 1% non-essential amino acids to a 384-well tissue culture treated plate, 100 μL cell susp/well. […] The cell medium was removed, followed by addition of 30 μL compound diluted in DMEM/F-12 with Glutamax, 10% FCS, 1% non-essential amino acids and 1% PeSt to a final conc. of 1% DMSO. The compounds were incubated with the cells for 17 h (overnight) at 37° C., 5% CO2. Meso Scale Discovery (MSD) plates were used for the detection of sAPPβ release. MSD sAPPβ plates were blocked in 1% BSA in Tris wash buffer (40 μL/well) for 1 h on shake at r.t. and washed 1 time in Tris wash buffer (40 μL/well). 20 μL of medium was transferred to the pre-blocked and washed MSD sAPPβ microplates, and the cell plates were further used in an ATP assay to measure cytotoxicity. The MSD plates were incubated with shaking at r.t. for 2 h and the media discarded. 10 μL detection antibody was added (1 nM) per well followed by incubation with shaking at r.t. for 2 h and then discarded. 40 μL Read Buffer was added per well and the plates were read in a SECTOR Imager.

A word on the IC50: it is the concentration that gives 50% inhibition. `CO[C@H]1CC[C@]2(CC1)Cc1ccc(-c3cc(Cl)cc(C#N)c3)cc1[C@@]21N=C(C)C(N)=N1` (single isomer, unassigned) [Example 20d Isomer 1] registered an IC50 of 0.26 nM.

In turn, `COC1CCC2(CC1)Oc1ccc(-c3cccc(Cl)c3)cc1C21N=C(C)C(N)=N1` (stereo not drawn) [Example 30b, 5′-(3-Chlorophenyl)-4-methoxy-5″-methyldispiro[cyclohexane-1,2′-[1]benzofuran-3′,2″-imidazol]-4″-amine] returned an IC50 of 284 nM.

With `COc1cccc(-c2ccc3c(c2)C2(CCO3)N=C(C)C(N)=N2)c1F` (stereo not drawn) [Example 9, 6-(2-Fluoro-3-methoxyphenyl)-5′-methylspiro[chroman-4,2′-imidazol]-4′-amine], it took 2450 nM to reach half-maximal inhibition (IC50). For the compound `CO[C@H]1CC[C@]2(CC1)Cc1ccc(-c3ccc(F)c(C#N)c3)cc1C21N=C(C)C(N)=N1` (stereo partly drawn) [Example 20g, 5-[(1r,4r)-4″-Amino-4-methoxy-5″-methyl-3′H-dispiro[cyclohexane-1,2′-indene-1′,2″-imidazol]-6′-yl]-2-fluorobenzonitrile], the IC50 amounted to 2.6 nM. Compound `CO[C@H]1CC[C@]2(CC1)Cc1ccc(-c3cc(F)cc(C#N)c3)cc1C21N=C(C)C(N)=N1` (single isomer, unassigned; isomer 1) [Example 75, 3-[(1r,4r)-4″-Amino-4-methoxy-5″-methyl-3′H-dispiro[cyclohexane-1,2′-indene-1′,2″-imidazol]-6′-yl]-5-fluorobenzonitrile] displayed an IC50 of 2.1 nM. In turn, `CO[C@H]1CC[C@]2(CC1)Cc1ccc(-c3cncc(Cl)c3)cc1[C@@]21N=C(C)C(N)=N1` (single isomer, unassigned) [Example 20e Isomer 1] registered an IC50 of 0.57 nM.
